# Assay results: paper PMC6471177 (Pharmaceutics, 2019)
# The chains behind the UniProt entries cited, without tags or fusion partners.
# UniProt P08183, whole entry: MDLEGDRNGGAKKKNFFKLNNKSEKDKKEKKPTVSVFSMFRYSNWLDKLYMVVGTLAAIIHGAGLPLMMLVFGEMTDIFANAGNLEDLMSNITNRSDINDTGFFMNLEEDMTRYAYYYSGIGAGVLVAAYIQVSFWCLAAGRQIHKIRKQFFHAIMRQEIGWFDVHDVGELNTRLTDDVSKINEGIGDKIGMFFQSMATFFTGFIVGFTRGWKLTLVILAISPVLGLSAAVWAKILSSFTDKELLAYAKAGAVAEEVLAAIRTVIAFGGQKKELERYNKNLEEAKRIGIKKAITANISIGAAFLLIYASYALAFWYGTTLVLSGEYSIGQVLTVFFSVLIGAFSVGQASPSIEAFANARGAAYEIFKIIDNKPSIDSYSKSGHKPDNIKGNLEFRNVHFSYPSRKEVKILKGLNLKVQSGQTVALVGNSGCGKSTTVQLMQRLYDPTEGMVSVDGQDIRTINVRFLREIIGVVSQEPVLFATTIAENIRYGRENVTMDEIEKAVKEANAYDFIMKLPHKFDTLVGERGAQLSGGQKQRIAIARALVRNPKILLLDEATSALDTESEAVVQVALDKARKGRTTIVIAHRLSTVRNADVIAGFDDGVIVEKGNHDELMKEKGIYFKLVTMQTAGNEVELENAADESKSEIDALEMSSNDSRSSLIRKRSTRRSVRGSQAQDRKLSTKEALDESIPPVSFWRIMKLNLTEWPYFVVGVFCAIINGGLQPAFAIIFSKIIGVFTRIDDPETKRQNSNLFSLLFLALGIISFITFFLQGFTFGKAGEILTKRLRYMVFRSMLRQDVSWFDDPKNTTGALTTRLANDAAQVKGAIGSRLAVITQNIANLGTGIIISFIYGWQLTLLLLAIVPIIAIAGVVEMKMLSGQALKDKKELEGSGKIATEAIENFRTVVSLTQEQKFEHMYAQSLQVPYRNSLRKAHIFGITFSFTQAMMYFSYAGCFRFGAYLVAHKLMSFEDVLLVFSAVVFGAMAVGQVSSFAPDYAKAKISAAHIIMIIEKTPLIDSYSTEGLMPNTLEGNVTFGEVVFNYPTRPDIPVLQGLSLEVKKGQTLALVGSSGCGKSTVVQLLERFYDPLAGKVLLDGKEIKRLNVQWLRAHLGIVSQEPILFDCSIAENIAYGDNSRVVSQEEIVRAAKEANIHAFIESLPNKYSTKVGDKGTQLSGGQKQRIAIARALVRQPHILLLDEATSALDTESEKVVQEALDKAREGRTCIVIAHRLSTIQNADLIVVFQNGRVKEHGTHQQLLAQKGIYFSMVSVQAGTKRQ
# Marks after values point to notes of the source that are not given here.
# What was measured:
# P-gp [1] = tested on: P-gp
# P-gp [2] = target: P-gp (Homo sapiens, UniProt P08183); conditions: Caco-2
substance,measurement,setting,value
rhodamine-123,Papp Absorptive (M to S) of rhodamine-123,P-gp [1],0.105 ± 0.0387 × 10^−6 cm/s
same,Papp Secretory (S to M) of rhodamine-123,P-gp [1],0.629 ± 0.160 ^a × 10^−6 cm/s
same,Efflux Ratio of rhodamine-123,P-gp [2],6.49
same,Papp Absorptive (A to B) of rhodamine-123,P-gp [2],0.231 ± 0.0388 × 10^−6 cm/s
same,Papp Secretory (B to A) of rhodamine-123,P-gp [2],1.50 ± 0.113 ^a × 10^−6 cm/s
